Results as given in patent US20120202884A1, “INHIBITORS OF CXCR1/2 AS ADJUVANTS IN THE TRANSPLANT OF PANCREATIC ISLETS” (DOMPE' S.P.A., priority 2009, published 2012).

Tested on: diabetic C57 mice
Test: Allogeneic islet transplantation in the liver of diabetic mice
Settings: 24 h and 48 h after transplant; both in the presence and in the absence of Rapamycin

CC(C)Cc1ccc([C@@H](C)C(=O)NS(C)(=O)=O)cc1 [Reparixin, R(−)-2-[(4-isobutylphenyl)propionyl]-methanesulfonamide]
circulating levels of ALT: not affected
